Test results reported in US20060189679A1, “C10 cyclopropyl ester substituted taxane compositions” (priority 2005, published 2006).

System: 786-0 human renal carcinoma xenografts
Experiment: 786-0 human tumor xenograft study (e89) in nude mice
Settings: for # Death NTR (Non-Treatment Related) / # Death TR (Treatment Related) / Day of Max. % BW Loss / MDS to 2.0 g ± SEM(n) / Max. % BW Loss: 786-0-e09 study; for Median survival Ratio: Column A (5% EC in Saline) / Column B

## CC(=O)O[C@@]12CO[C@@H]1C[C@H](O)[C@@]1(C)C(=O)[C@H](OC(=O)C3CC3)C3=C(C)[C@@H](OC(=O)[C@H](O)[C@@H](NC(=O)OCC(C)C)c4ccco4)C[C@@](O)([C@@H](OC(=O)c4ccccc4)C12)C3(C)C (stereo partly drawn) [Compound 3102]
30 mg/kg IV Q4D × 4
  # Death NTR (Non-Treatment Related): 0
  # Death TR (Treatment Related): 0
  Day of Max. % BW Loss: Day 17
  MDS to 2.0 g ± SEM(n): 50.8 ± 3.8
  Max. % BW Loss: −12.4%;
50 mg/kg PO Q4D × 4
  # Death NTR (Non-Treatment Related): 0
  # Death TR (Treatment Related): 0
  MDS to 2.0 g ± SEM(n): 42.8 ± 2.2
70 mg/kg PO Q4D × 4
  # Death NTR (Non-Treatment Related): 0
  # Death TR (Treatment Related): 0
  Day of Max. % BW Loss: Day 10
  MDS to 2.0 g ± SEM(n): 40.5 ± 2.0
  Max. % BW Loss: −5.3%;
80 mg/kg PO Q4D × 4
  # Death NTR (Non-Treatment Related): 0
  # Death TR (Treatment Related): 0
  Day of Max. % BW Loss: Day 17
  MDS to 2.0 g ± SEM(n): 47.7 ± 2.1
  Max. % BW Loss: −7.6%;
IV Q4D × 4 30 mg/kg
  Median survival Ratio: 0.6789
  Median survival: 54.65
PO Q4D × 4 50 mg/kg
  Median survival Ratio: 0.8235
  Median survival: 45.05
PO Q4D × 4 70 mg/kg
  Median survival Ratio: 0.9562
  Median survival: 38.8
PO Q4D × 4 80 mg/kg
  Median survival Ratio: 0.7729
  Median survival: 48
IV Q4D × 4 30 mg/kg vs 5% EC in Saline PO Q4D × 4
  Hazard Ratio: 3.164
PO Q4D × 4 50 mg/kg vs 5% EC in Saline PO Q4D × 4
  Hazard Ratio: 2.176
PO Q4D × 4 70 mg/kg vs 5% EC in Saline PO Q4D × 4
  Hazard Ratio: 1.297
PO Q4D × 4 80 mg/kg vs 5% EC in Saline PO Q4D × 4
  Hazard Ratio: 3.013
